What was measured:
[1] = Fraction unbound in rat plasma; type: ADME, cell-free
Homo sapiens [2] = species: Homo sapiens; test: Selectivity ratio of IC50 for human recombinant PDE11 to IC50 for human platelet PDE5
Homo sapiens [3] = species: Homo sapiens; test: Plasma protein binding in human; details: read-out: PPB (converted)
Homo sapiens [4] = species: Homo sapiens; test: Selectivity ratio of IC50 for human retina PDE6 to IC50 for human platelet PDE5
Homo sapiens [5] = species: Homo sapiens; test: Fraction unbound in human plasma

## CCCOCCn1c(=O)c(N2CCNCC2)nc2cnc(-c3ccc(OC)nc3)cc21
[1]
  fraction unbound: 0.18
Homo sapiens [2]
  Ratio IC50: 2460
Homo sapiens [3]
  fraction unbound: 0.188
Homo sapiens [4]
  Ratio IC50: 51
Homo sapiens [5]
  fraction unbound: 0.18

— ChEMBL document CHEMBL1157659, “Design, synthesis, and biological evaluation of 3-[4-(2-hydroxyethyl)piperazin-1-yl]-7-(6-methoxypyridin-3-yl)-1-(2-propoxyethyl)pyrido[3,4-b]pyrazin-2(1H)-one, a potent, orally active, brain penetrant inhibitor of phosphodiesterase 5 (PDE5)” (J Med Chem, 2010)
